This data set in a line: Fractionation of soluble and insoluble recombinant protein by cell lysis and centrifugation / SDS-PAGE. The class given is physicochemical. Conditions: T. maritima proteins expressed in E. coli; SDS-PAGE of soluble and insoluble fractions. The protocol:
E. coli strains MG1655 (F^−lam rph1) and KY1429 (F- araD139 Δ(argF-lac)169 lam flhD5301 fruA25 relA1 rpsL150 zhh50::Tn10 rpoH606(ts) deoC1) were transformed with expression plasmids encoding M36881 (LCK) or M86400 (PLA) for expression profiling. Cells were cultured at 37° C. in Luria Broth containing ampicillin. Protein expression was induced by addition of L-arabinose to a final concentration of 0.1% for 1 hour. KY1429 cells were cultured as above except initial growth was performed at 32° C. followed by a shift to 42° C. for non-permissive expression of rpoH606. Top10 cells (F^−-mcrA Δ(mrr-hsdRMS-mcrBC) φ80lacZΔM15 ΔlacX74 deoR recA1 araD139 Δ(ara-leu)7697 galU galK rpsL endA1 nupG) containing the ibpAB promoter fusion (pHK57), were transformed with expression constructs listed above. Beta-galactosidase assays were performed essentially as described by Miller (24). Fractionation of soluble and insoluble proteins was performed by centrifugation. Cultures were resuspended in 50 mM Tris pH 7.9, 50 mM NaCl, 1 mM MgCl2, 3 mM methionine and sonicated for 2 minutes on ice. Cell debris and insoluble protein aggregates were pelleted by centrifugation at 3000×g for 15 minutes. The soluble fraction was removed and the pellets resuspended in an equivalent volume of lysis buffer. […]

B1: TM0294: T. maritima glutamate 5-kinase (proB) (protein, UniProt Q9WYD0 1-353, looked up)
Glutamate 5-kinase: MIMKVVVKVGSNLLVGSSGLRKSYIAELCREVARLKSQGHEISIITSGARAAGFTYLGKGKRTQDLHIKQALCAVGQVQLMKVYENAFDFYGIKIAQILLTRDTFSNRKRYLNLRNTLIGLSEFDVVPIVNENDTVATEEITLGDNDTLAAMFSIAWDADFLVLFTTVDGVIDENGKLVERFDESVKLKDMGKSSWGTGGIRSKIESALMASRCGVKATICSGNDVSNLTRFVKGEPVGTVFEPQGRLKAKKAWIAFLSEPAGKIYVNKGAEEALKSGNSLLPVGVTGVEGTFDVGDVVEIVNEEGELVGRGIVNYSSSDLEKIAGHKSSDLKKILGYEGNKVVVHIDNMWVA
Take B1: the pre-determined expression characteristics entry is reported as “Insoluble”.

For the origin of these results see patent US20040170976A1, “Solubility reporter gene constructs” (priority 2000, published 2004).
